Results published in patent publication US5821239A (priority 1996, dated 1998).

System: Scopolamine Induced Memory Deficit (mice)
Test: Dark Avoidance Assay (reversal of scopolamine induced memory deficit)
Type: in vivo
Settings: 0.3 mg/kg of body weight, s.c., retest at 24 hours

Structure (SMILES)	% of Animals with Scopolamine Induced Memory Deficit Reversal [%]
CCN(CC)C(=O)Oc1cnccc1N=CN(C)C	26.6
CN(C)C(=O)Oc1cnccc1N	26.6
